Values of other authors, collected in patent EP2992879B1, “PHARMACEUTICAL COMPOSITION FOR […] OF MOTOR NEURONS AND USE THEREOF” (China Medical University, priority 2012, dated 2014).

Test system: SOD1-G93A transgenic mice
Conditions: SOD1-G93A transgenic mice treated with Riluzole; from Amyotrophic Lateral Sclerosis. 2009; 10: 85-94; cited from earlier work

Nc1nc2ccc(OC(F)(F)F)cc2s1 [Riluzole]
mice survived: 140 days
